# scFv variants of Ab-14 (light chain) against a SARS-CoV-2 spike peptide

Values reported by Li et al. 2023, doi:10.1038/s41467-023-39022-2 (FLAb copy).

Antigen: PDVDLGDISGINAS, a 14-residue peptide of the SARS-CoV-2 spike HR2 region.

The variants keep the heavy chain, the linker and the frameworks of Ab-14 (scFv order VH, a 15-residue (Gly4Ser)3 linker, VL).
VH: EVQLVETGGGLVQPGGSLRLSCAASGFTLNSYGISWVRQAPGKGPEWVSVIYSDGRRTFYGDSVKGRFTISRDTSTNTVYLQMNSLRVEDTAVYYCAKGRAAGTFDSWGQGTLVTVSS
VL: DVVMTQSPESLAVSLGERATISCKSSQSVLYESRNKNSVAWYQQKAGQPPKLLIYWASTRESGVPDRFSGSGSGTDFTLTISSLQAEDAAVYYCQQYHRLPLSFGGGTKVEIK

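The starting antibody came from a phage panning campaign against this peptide. The variants were designed computationally from a first round of random CDR variants and then made and measured. Their group label is 14L_Rand (Rand: our label for a block that the file lists under HC and that is probably the random mutants of the ten best first-round binders). The assay is AlphaSeq: two haploid yeast populations carry antibody and antigen on their surface. Pairs that bind mate more often; barcode pairs of the diploids are counted by sequencing. The ratio of observed to expected reads was calibrated, replicate by replicate, on BCL2-family standards whose Kd was known from biolayer interferometry. Mating was done six times.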

Variants are written as CDR1, CDR2 and CDR3 of the light chain (limits as in the source). Parent: KSSQSVLYESRNKNSVA, WASTRES, QQYHRLPLS. Values are log10 of the apparent Kd in nM; lower means stronger binding. Averages over replicates are reported, and they cover detected replicates only. A pair that was not seen in that replicate is written "n.d."; this usually means weak binding, but a binder can also be missed. A sequence measured in both rounds can read differently, since the two assays cover different ranges. The parent sequence was in this pool as ten entries: three were never detected, three once, and four in most replicates, with averages from 0.34 to 2.37. Three control strains display no target. For all light chain designs, 4% of the pairings with them gave a signal, with a median of 2.64 and one signal in twenty below 1.59, so weak values seen in few replicates may be background. For each scFv, signals with the empty controls are counted beside the result, with their mean in brackets. In the paper, a design with two or fewer of six values counts as a poor binder.

| CDR-L1 | CDR-L2 | CDR-L3 | log10 Kd, replicates | mean, log10 nM | empty controls |
|---|---|---|---|---|---|
| KSYISYLYESRNKNSVA | EASTRES | QQYHRLELS | 1.58 / 0.18 / 0.02 / 0.21 / 0.18 / 0.24 | 0.40 | 0/18 |
| KLSQFVLFESRNKNSVA | DASTHES | QQYHRGPLS | n.d. / n.d. / n.d. / n.d. / n.d. / n.d. | n.d. | 0/18 |
| KSSISYLYASRMKNSVA | EASTLES | QQYHRLPLS | 0.74 / 0.73 / 0.81 / 0.51 / 0.51 / 0.59 | 0.65 | 2/18 (2.86) |
| KSGRGVLYESRNKCSVA | GASTRES | QQYHRYPLS | 1.13 / 1.20 / 0.18 / 0.19 / 2.80 / 0.61 | 1.02 | 0/18 |
| KFSQSVLYESRTKNVVA | NASTRES | QQYHRLPLS | 1.54 / 0.83 / 1.05 / 0.91 / 1.20 / 1.20 | 1.12 | 2/18 (2.27) |
| KHSQSVLYESRTKNSWA | NASSRES | TQYHRLPLS | n.d. / n.d. / n.d. / n.d. / n.d. / n.d. | n.d. | 0/18 |
| KSGQGVLYESRNKNSVA | GRSTRES | QQYHRLPLS | 1.03 / 0.67 / 0.66 / 0.69 / 0.56 / 1.34 | 0.83 | 0/18 |
| KESQSVLFEWRNKNSVA | DASTRES | QQYHRLPLS | -0.15 / 0.00 / 0.23 / -0.25 / -0.21 / -0.07 | -0.08 | 0/18 |
| KSSQSWSYESRNKNSRA | GASTRES | QQYHRLPLS | 0.07 / 0.06 / 0.33 / 1.09 / 0.24 / 0.38 | 0.36 | 2/18 (1.46) |
| KSYQSFLYESRNKNSVA | GASTRES | QNYHRLTLS | n.d. / n.d. / n.d. / n.d. / n.d. / n.d. | n.d. | 0/18 |
| KFSQSVAYESRTKNSVA | NNSTRES | QQAHRLPLS | n.d. / n.d. / n.d. / n.d. / n.d. / n.d. | n.d. | 0/18 |
| KSSQSVLFESRNCNSVA | DASTRES | QQYHRPPLS | 0.60 / 0.58 / 0.79 / 0.33 / 0.33 / 0.63 | 0.54 | 0/18 |
| KSGQGVLYESRNGNSVD | GASLRES | QQYHRLPLS | 0.74 / 0.54 / 0.93 / 0.94 / 1.14 / 1.61 | 0.99 | 1/18 (2.44) |
| KSGQGVLYESRNKNSVA | GASTGES | QQYHRLPLS | n.d. / 2.51 / 2.39 / 2.17 / n.d. / n.d. | 2.36 | 1/18 (2.11) |
| KFSQSVLYESRTKNSVA | NASTRES | NQYHRLPLS | n.d. / n.d. / n.d. / n.d. / n.d. / n.d. | n.d. | 0/18 |
| HSNPWVLYESLNKNSVQ | NASTRES | QQYHRLPLS | 1.83 / 1.87 / 1.90 / 3.36 / 1.76 / 1.78 | 2.08 | 0/18 |
| KFSQQVLYESRTKNQVA | NFSTRES | QQYHRLPLS | 0.66 / 1.23 / 0.53 / 0.54 / 0.62 / 1.01 | 0.76 | 0/18 |
| KLRQSTKYESRNENSVA | WASTRES | QQYHRLPLS | 0.88 / 1.07 / 0.59 / 0.67 / 0.96 / 1.19 | 0.89 | 0/18 |
| KSSRSWLYESRNKNSVA | GASTRES | HQYHRLPLS | 2.40 / 2.01 / 1.74 / 2.68 / 2.41 / 2.46 | 2.28 | 1/18 (4.05) |
| KSSQSFLYESRNKNSVD | GASTRES | QEYHRGTLS | n.d. / n.d. / n.d. / n.d. / 1.52 / n.d. | 1.52 | 0/18 |
| HSSPSVLYESRNKNSVA | NASTRES | QQYHRLGLQ | 2.40 / 1.82 / 1.88 / 1.80 / 1.68 / 1.41 | 1.83 | 0/18 |
| HWQPSVLYESRNKNSVA | NASTRES | QQYHRLPLS | -0.02 / -0.26 / -0.41 / -0.36 / -0.25 / -0.24 | -0.26 | 5/18 (2.65) |
| KFSQSVLYESRTKNSVA | NAFTRGS | QQYHRLPLS | 0.52 / 0.44 / 0.45 / 0.29 / 0.56 / 0.65 | 0.48 | 1/18 (3.27) |
| KLRQSTPCESRNKNSVA | WASTRES | QQYHRLPLS | n.d. / n.d. / n.d. / 2.79 / 1.53 / n.d. | 2.16 | 1/18 (2.62) |
| KQSQSVLYESRNKNSVA | DASTRES | YQYHRLPSS | 1.85 / 0.44 / 1.33 / 0.91 / 1.02 / 1.75 | 1.22 | 1/18 (3.14) |
| KFSQSVLYESRTKNSVQ | NASTWES | QQYHRLPLS | n.d. / n.d. / n.d. / n.d. / n.d. / n.d. | n.d. | 1/18 (3.08) |
| KMGIGVLYESRNKGSVA | GASVRES | QQYHRCPLS | n.d. / n.d. / n.d. / n.d. / n.d. / n.d. | n.d. | 0/18 |
| KSSQSVLFASRNHNSVD | DASYRES | QQYHRLPLS | n.d. / n.d. / n.d. / n.d. / n.d. / n.d. | n.d. | 0/18 |
| HSSPSVLYESRNKNSVA | NSSTRES | QQYHRLPLS | 0.30 / 0.29 / 0.04 / -0.05 / 0.23 / 0.35 | 0.19 | 1/18 (2.82) |
| HSSPYVLYESVNKNSVA | NASTRES | QDYHRLPLS | 0.49 / 0.45 / 0.07 / 0.05 / 0.48 / 0.65 | 0.36 | 2/18 (1.87) |
| KLGQGVLYESMNCNSYA | GASTRES | QQYHRLPSS | n.d. / n.d. / n.d. / n.d. / n.d. / n.d. | n.d. | 1/18 (2.25) |
| KSSQCWLDEIRNKNSVA | GASTRES | QQYHRLPLS | -0.23 / -0.29 / -0.23 / -0.44 / 0.06 / -0.17 | -0.22 | 0/18 |
| KSSQSFLYESRNKNAVA | GASTRES | QQYMRLTLS | 0.13 / 0.03 / 0.04 / 0.17 / -0.10 / 0.25 | 0.09 | 0/18 |
| KSSQSWLYESRNFWSVA | GASTRES | QQGHRLPLS | n.d. / n.d. / n.d. / n.d. / n.d. / n.d. | n.d. | 1/18 (1.38) |
| KSGQGVLYESRNKNSVA | GASTPES | QQYHRLPLS | 0.45 / 0.51 / 0.44 / 0.39 / 0.86 / 0.74 | 0.56 | 0/18 |
| KSGQGALYYSRNKNSVA | GASTRES | QQYHRLPLS | 0.28 / 0.17 / 0.40 / 0.21 / 0.06 / 0.24 | 0.23 | 2/18 (3.10) |
| KLRQSTLFESRNKNKVT | GASTRES | QQYHRLPLS | n.d. / n.d. / n.d. / n.d. / 2.35 / n.d. | 2.35 | 1/18 (2.00) |
| KFSQSVLYELRTKNSVA | NASTRES | QQYHRLPLS | 0.11 / -0.23 / -0.15 / -0.03 / -0.01 / 0.08 | -0.04 | 1/18 (3.49) |
| KSGQGALYESYNKNSVA | GPSTRES | QQYHRLPLS | 1.58 / 2.20 / 1.25 / 1.26 / 1.63 / 2.19 | 1.69 | 2/18 (2.58) |
| HSSPSVLYESRNKNSVA | NAITAES | TQYHRLPLS | n.d. / n.d. / 1.33 / n.d. / n.d. / n.d. | 1.33 | 1/18 (0.68) |
| KSSQSFLYESRWKNSVA | GASWRES | QQYHRLTLS | n.d. / n.d. / n.d. / n.d. / n.d. / n.d. | n.d. | 0/18 |
| KQSQSVLYESRNKTSVA | DASTRES | QQYHRLPLS | 1.49 / 0.83 / 0.71 / 0.71 / 1.10 / 1.04 | 0.98 | 0/18 |

A selection of 4 entries from above:

| CDR-L1 | CDR-L2 | CDR-L3 | log10 Kd, replicates | mean, log10 nM | empty controls |
|---|---|---|---|---|---|
| KSGQGVLYESRNKNSVA | GRSTRES | QQYHRLPLS | 1.03 / 0.67 / 0.66 / 0.69 / 0.56 / 1.34 | 0.83 | 0/18 |
| KFSQSVLYESRTKNSVA | NASTRES | NQYHRLPLS | n.d. / n.d. / n.d. / n.d. / n.d. / n.d. | n.d. | 0/18 |
| KSGQGVLYESRNKNSVA | GASTGES | QQYHRLPLS | n.d. / 2.51 / 2.39 / 2.17 / n.d. / n.d. | 2.36 | 1/18 (2.11) |
| KSSQSFLYESRNKNSVD | GASTRES | QEYHRGTLS | n.d. / n.d. / n.d. / n.d. / 1.52 / n.d. | 1.52 | 0/18 |